Experiment: Phase 1 MAD study of ALT-801: adverse events (TEAEs), safety overview
Details: M3 2.4 mg ALT-801 (N = 11)

CC[C@H](C)[C@H](NC(=O)[C@H](Cc1ccccc1)NC(=O)[C@H](CCC(=O)O)NC(=O)[C@@H]1CCCCNC(=O)CC[C@H](NC(=O)[C@H](CC(=O)O)NC(=O)[C@H](CC(C)C)NC(=O)[C@H](Cc2ccc(O)cc2)NC(=O)[C@H](CCCCN)NC(=O)[C@H](CO)NC(=O)[C@H](Cc2ccc(O)cc2)NC(=O)[C@H](CC(=O)O)NC(=O)[C@H](CO)NC(=O)[C@@H](NC(=O)[C@H](Cc2ccccc2)NC(=O)[C@@H](NC(=O)CNC(=O)[C@H](CCC(N)=O)NC(=O)C(C)(C)NC(=O)[C@@H](N)Cc2c[nH]cn2)[C@@H](C)O)[C@@H](C)O)C(=O)N[C@@H](CCCCNC(=O)[C@H]2O[C@@H](OCCCCCCCCCCCCCCCCCC(=O)O)[C@H](O)[C@@H](O)[C@@H]2O)C(=O)N[C@@H](C)C(=O)N[C@@H](C)C(=O)N1)C(=O)N[C@@H](CCC(N)=O)C(=O)N[C@@H](Cc1c[nH]c2ccccc12)C(=O)N[C@@H](CC(C)C)C(=O)N[C@@H](CC(C)C)C(=O)N[C@@H](CCC(N)=O)C(=O)N[C@H](C(N)=O)[C@@H](C)O [ALT-801, pemvidutide]
TEAE Cough, maximum severity Severe, subjects n: 0
TEAE Dermatitis contact, maximum severity Mild, subjects %: (27.3%)
TEAE Dermatitis contact, maximum severity Mild, subjects n: 3
TEAE Dermatitis contact, maximum severity Moderate, subjects %: (0.0%)
TEAE Dermatitis contact, maximum severity Moderate, subjects n: 0
TEAE Dermatitis contact, maximum severity PLT, subjects %: (0.0%)
TEAE Dermatitis contact, maximum severity PLT, subjects n: 0
TEAE Dermatitis contact, maximum severity Severe, subjects %: (0.0%)
TEAE Dermatitis contact, maximum severity Severe, subjects n: 0
TEAE Eczema, maximum severity Mild, subjects %: (0.0%)
TEAE Eczema, maximum severity Mild, subjects n: 0
TEAE Eczema, maximum severity Moderate, subjects %: (0.0%)
TEAE Eczema, maximum severity Moderate, subjects n: 0
TEAE Eczema, maximum severity PLT, subjects %: (0.0%)
TEAE Eczema, maximum severity PLT, subjects n: 0
TEAE Eczema, maximum severity Severe, subjects %: (0.0%)
TEAE Eczema, maximum severity Severe, subjects n: 0
TEAE Hot flush, maximum severity Mild, subjects %: (9.1%)
TEAE Hot flush, maximum severity Mild, subjects n: 1
TEAE Hot flush, maximum severity Moderate, subjects %: (0.0%)
TEAE Hot flush, maximum severity Moderate, subjects n: 0
TEAE Hot flush, maximum severity PLT, subjects %: (0.0%)
TEAE Hot flush, maximum severity PLT, subjects n: 0
TEAE Hot flush, maximum severity Severe, subjects %: (0.0%)
TEAE Hot flush, maximum severity Severe, subjects n: 0
TEAE Menorrhagia, maximum severity PLT, subjects %: (0.0%)
TEAE Menorrhagia, maximum severity PLT, subjects n: 0
TEAE Oropharyngeal pain, maximum severity Mild, subjects %: (9.1%)
TEAE Oropharyngeal pain, maximum severity Mild, subjects n: 1
TEAE Oropharyngeal pain, maximum severity Moderate, subjects %: (0.0%)
TEAE Oropharyngeal pain, maximum severity Moderate, subjects n: 0
TEAE Oropharyngeal pain, maximum severity PLT, subjects %: (0.0%)
TEAE Oropharyngeal pain, maximum severity PLT, subjects n: 0
TEAE Oropharyngeal pain, maximum severity Severe, subjects %: (0.0%)
TEAE Oropharyngeal pain, maximum severity Severe, subjects n: 0
TEAE Papule, maximum severity Mild, subjects %: (0.0%)
TEAE Papule, maximum severity Mild, subjects n: 0
TEAE Papule, maximum severity Moderate, subjects %: (0.0%)
TEAE Papule, maximum severity Moderate, subjects n: 0
TEAE Papule, maximum severity PLT, subjects %: (0.0%)
TEAE Papule, maximum severity PLT, subjects n: 0
TEAE Papule, maximum severity Severe, subjects %: (0.0%)
TEAE Papule, maximum severity Severe, subjects n: 0
TEAE Pruritus, maximum severity Mild, subjects %: (0.0%)
TEAE Pruritus, maximum severity Mild, subjects n: 0
TEAE Pruritus, maximum severity Moderate, subjects %: (0.0%)
TEAE Pruritus, maximum severity Moderate, subjects n: 0
TEAE Pruritus, maximum severity PLT, subjects %: (0.0%)
TEAE Pruritus, maximum severity PLT, subjects n: 0
TEAE Pruritus, maximum severity Severe, subjects %: (0.0%)
TEAE Pruritus, maximum severity Severe, subjects n: 0
TEAE Rash, maximum severity Mild, subjects %: (0.0%)
TEAE Rash, maximum severity Mild, subjects n: 0
TEAE Rash, maximum severity Moderate, subjects %: (0.0%)
TEAE Rash, maximum severity Moderate, subjects n: 0
TEAE Rash, maximum severity PLT, subjects %: (0.0%)
TEAE Rash, maximum severity PLT, subjects n: 0
TEAE Rash, maximum severity Severe, subjects %: (0.0%)
TEAE Rash, maximum severity Severe, subjects n: 0
TEAE Respiratory, thoracic and mediastinal disorders, maximum severity Mild, subjects %: (18.2%)
TEAE Respiratory, thoracic and mediastinal disorders, maximum severity Mild, subjects n: 2
TEAE Respiratory, thoracic and mediastinal disorders, maximum severity Moderate, subjects %: (0.0%)
TEAE Respiratory, thoracic and mediastinal disorders, maximum severity Moderate, subjects n: 0
TEAE Respiratory, thoracic and mediastinal disorders, maximum severity PLT, subjects %: (0.0%)
TEAE Respiratory, thoracic and mediastinal disorders, maximum severity PLT, subjects n: 0
TEAE Respiratory, thoracic and mediastinal disorders, maximum severity Severe, subjects %: (0.0%)
TEAE Respiratory, thoracic and mediastinal disorders, maximum severity Severe, subjects n: 0
TEAE Skin and subcutaneous tissue disorders, maximum severity Mild, subjects %: (27.3%)
TEAE Skin and subcutaneous tissue disorders, maximum severity Mild, subjects n: 3
TEAE Skin and subcutaneous tissue disorders, maximum severity Moderate, subjects %: (0.0%)
TEAE Skin and subcutaneous tissue disorders, maximum severity Moderate, subjects n: 0
TEAE Skin and subcutaneous tissue disorders, maximum severity PLT, subjects %: (0.0%)
TEAE Skin and subcutaneous tissue disorders, maximum severity PLT, subjects n: 0
TEAE Skin and subcutaneous tissue disorders, maximum severity Severe, subjects %: (0.0%)
TEAE Skin and subcutaneous tissue disorders, maximum severity Severe, subjects n: 0
TEAE Skin lesion, maximum severity Mild, subjects %: (0.0%)
TEAE Skin lesion, maximum severity Mild, subjects n: 0
TEAE Skin lesion, maximum severity Moderate, subjects %: (0.0%)
TEAE Skin lesion, maximum severity Moderate, subjects n: 0
TEAE Skin lesion, maximum severity PLT, subjects %: (0.0%)
TEAE Skin lesion, maximum severity PLT, subjects n: 0
TEAE Skin lesion, maximum severity Severe, subjects %: (0.0%)
TEAE Skin lesion, maximum severity Severe, subjects n: 0
TEAE Vascular disorders, maximum severity Mild, subjects %: (9.1%)
TEAE Vascular disorders, maximum severity Mild, subjects n: 1
TEAE Vascular disorders, maximum severity Moderate, subjects %: (0.0%)
TEAE Vascular disorders, maximum severity Moderate, subjects n: 0
TEAE Vascular disorders, maximum severity PLT, subjects n: 0
TEAE Vascular disorders, maximum severity Severe, subjects %: (0.0%)
TEAE Vascular disorders, maximum severity Severe, subjects n: 0

From patent US12171806B2, “Therapeutic regimens and methods for lowering blood glucose and/or body weight using GLP-1R and GCGR balanced agonists” (priority 2021, dated 2024)
